In patent publication US20200368373A1, “OPTICAL IMAGING AGENTS TARGETING INFLAMMATION” (SORBONNE UNIVERSITE, priority 2018, published 2020):

Tests used:
[1] = system: CT26.WT mus musculus colon carcinoma cells; experiment: In vitro binding and internalization by flow cytometry, tumor cells; assay type: cell-based; conditions: LPS-stimulated cells, 30 ng; for binding to tumor cells: 20 min at 4° C.
Experimental: (§1) The in vitro experiments were performed with bEnd.3 mus musculus brain endothelial cells (CRL-2299™) and CT26.WT mus musculus colon carcinoma cells (CRL-2638™) provided by ATCC®. Those cells were cultured in DMEM-Dulbecco's Modified Eagle Medium (10566-016, Gibco Thermo Fisher) added by 10% of fetal bovine serum (10500056, Gibco Thermo Fisher) and 1% of Penicillin-Streptomycin (5,000 U/mL, 15070063, Gibco Thermo Fisher) antibiotics. A suspension of Lipopolysaccharide stimulated cells (0.1 mg/mL, 4 h, 37° C.), were collected and prepared in binding buffer (50 mM Tris HCl, 150 mM NaCl, 1 mM CaCl2, 1 mM MgCl2, 1 mM MnCl2, 1% BSA in water) at 500 000 cell per milliliter. An incubation of 1 h at 4° C. was realized in order to saturate unspecific binding. For evaluation of E-selectin expression (FIG. 4A) cells were incubated successively with purified rat anti-Mouse CD62E antibody (1 μg/mL, 550290 BD Pharmingen™) in PBS/BSA 1% and with goat anti-rat IgG-Alexa Fluor®488 (1 μg/ml, ab150157 Abcam) for 30 min a 4° C. To study cellular binding and internalization, cells were incubated with 30 ng of HSA or HSA-SLX for 20min at 4° C. (FIG. 4B-C) or 37° C. (FIG. 4D).
(§2) After those different steps, cells were washed twice with binding buffer and analyzed by flow cytometry (Guava® easyCyte Millipore).

[2] = system: bEnd.3 mus musculus brain endothelial cells; experiment: In vitro binding and internalization by flow cytometry, endothelial cells; assay type: cell-based; conditions: LPS-stimulated cells, 30 ng; for binding to endothelial cells: 20 min at 4° C.; for internalization by endothelial cells: 20 min at 37° C.
Experimental: as §1, §2

[3] = Size exclusion chromatography/UV: distribution of monomers, dimers, trimers and oligomers; assay type: physicochemical; conditions: SEC, UV 280 nm, FIG. 10
Experimental: Size exclusion chromatography/UV was performed to evaluate the distribution of monomers, dimers, trimers and oligomers of the optical imaging agents according to the present invention.
Separation and analysis were performed on a LC-10 liquid chromatography system from Shimadzu (Kyoto, Japan) natively equipped with a vacuum degasser, an auto-sampler, a UV absorbance detector and refractive index detector (RID). The size exclusion chromatography stationary phase was a Shodex Protein LW 803 column provided by Showa Denko (Japan). Between the auto-sampler and HPLC pump, mobile phase was filtered in-line by a 0.1 μm durapore PVDF membrane in a PEEK in-line filter. Detection was realized using UV absorbance at a wavelength of 280 nm. Concomitantly, refractive index quantifications were performed using white light. Mobile phase was CH3COONH4 50 mM NaN3 0.03% in milli-Q water degassed by vacuum pump and filtered on stericup filter units. MALS detection was achieved on a three angle mini-Dawn Treos II from Wyatt Technology equipped with a 658 nm wavelength laser. Data analysis was achieved on Astra 7.1, Wyatt Technology.

Substance | binding to tumor cells [1] | internalization by tumor cells ([1]; 20 min at 37° C.) | binding to endothelial cells [2] | internalization by endothelial cells [2] | distribution into monomers, dimers, trimers or oligomers (aggregation) [3]
non-functionalized albumin: Cyanine-labelled albumin which does not contain any targeting portion (no BIOVECTOR), used as control | neither bind | nor is internalized | neither bind | nor is internalized | –
HSA-SLX: Human serum albumin labelled with sulfo-cyanine 5 and grafted with Sialyl Lewis X via maleimide/iminothiolane linker | bind to both type of cells | – | bind to both type of cells | internalized mostly by endothelial cells | exist mainly in the form of monomers and form very few oligomers
